# Antibody variant affinities, Ab-14 light chain, assay B

Source: Li et al. 2023 (doi:10.1038/s41467-023-39022-2), MIT Lincoln Laboratory and A-Alpha Bio; data file from the FLAb repository.

Binding partner: SARS-CoV-2 spike HR2 peptide, sequence PDVDLGDISGINAS.

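The variants were designed computationally from a first round of random CDR variants and then made and measured. Their group label is 14L_En_Gibbs (En: ensemble of fine-tuned language models; Gibbs: Gibbs sampling). AlphaSeq pools MATa yeast showing the antibodies with MATalpha yeast showing the peptide. Mating (16 h, 30 °C) was followed by selection of diploids and sequencing of their barcodes. Read counts were normalised to the haploid input and turned into Kd by a linear fit to BCL2-family pairs of known affinity, for each replicate. The assay was run in six technical replicates.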

Each scFv is VH, the linker GGGGSGGGGSGGGGS, VL, as in the parent Ab-14, and differs from it in the CDRs of the light chain only.
VH: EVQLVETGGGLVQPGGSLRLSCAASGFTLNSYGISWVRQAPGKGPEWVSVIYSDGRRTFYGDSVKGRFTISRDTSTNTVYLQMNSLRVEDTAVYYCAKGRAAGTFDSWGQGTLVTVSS
VL: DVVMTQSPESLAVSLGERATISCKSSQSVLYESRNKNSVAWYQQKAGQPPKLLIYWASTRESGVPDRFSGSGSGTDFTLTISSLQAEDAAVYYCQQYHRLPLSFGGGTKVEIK

Variants are written as CDR1, CDR2 and CDR3 of the light chain (limits as in the source). Parent: KSSQSVLYESRNKNSVA, WASTRES, QQYHRLPLS.
The read-out is the apparent dissociation constant on a log10 scale (nM): the lower, the stronger.
Replicates are averaged; those with no signal do not enter the mean.
Where no diploid with the target was found in that replicate, the entry reads "ND": below detection, most likely a poor binder, though not proof of it.
The authors averaged sequences with at least three values out of six and counted those with two or fewer as poor binders.
Of ten entries with the parent sequence, four were seen in most replicates (averages 0.34 to 2.37), three in one and three in none, so single entries are noisy.
The range of this assay differs from that of the first round, and the authors advise against merging the two.
Empty control strains, which show no peptide, gave a signal in 4% of pairings with all light chain designs; the median was 2.64 and 95% of these signals were weaker than 1.59. No background was subtracted. For each scFv, signals with the empty controls are counted beside the result, with their mean in brackets.

| CDR-L1 | CDR-L2 | CDR-L3 | replicates, log10 nM | log10 Kd (nM), mean | control signals |
|---|---|---|---|---|---|
| KLYDEATNRVGTATNIA | EKEISLQ | QQYDRLPLS | 2.41 1.50 1.74 0.92 1.30 1.53 | 1.57 | 0/18 |
| GIHSQMVGTSAVKENVA | NANERLE | QQYQRLPLT | 0.63 1.01 ND 0.94 0.93 ND | 0.88 | 0/18 |
| KLFGGILEQERIDYSIA | YATLSVD | QQYDRLPLS | ND ND ND ND ND ND | ND | 0/18 |
| TLHNGDNHDQVSKYSIA | DATLINE | QQYARLPLE | 0.07 0.32 0.30 0.02 0.20 0.60 | 0.25 | 0/18 |
| HLHTIMYTEGIGTNSIA | DANLHVD | QQYFRLPIM | 1.01 1.95 1.29 0.67 1.06 1.08 | 1.18 | 1/18 (1.95) |
| KLMQSLQGEPKDWYNVA | EGESATV | QDYARLPLM | ND ND ND 2.35 ND ND | 2.35 | 0/18 |
| NISYEQALSTNSVNNVA | QASVRAP | QYYQRLPLC | 0.24 0.14 0.66 0.02 0.09 0.62 | 0.30 | 0/18 |
| QMQLNQIEGNQQQNSIA | GESEADM | QHYARLPLT | ND 3.47 ND ND ND ND | 3.47 | 0/18 |
| KVSIFMWTMDNANSHIA | NMAEERT | QQYQRLPLS | ND 3.59 ND ND ND ND | 3.59 | 1/18 (0.97) |
| SVTRYTDENGLKMNSVA | DAAEAMT | QQYHRLPLT | 0.50 -0.15 0.83 0.17 -0.06 0.23 | 0.25 | 0/18 |
| YMSQQEPGDWNQQEAVA | EVTYKEH | QQYYRLPLS | ND ND ND ND ND ND | ND | 0/18 |
| KLDLENGHEGKKGQNIA | EASTAGD | QSYWRLPLS | 1.72 1.46 1.14 1.17 ND 1.84 | 1.47 | 0/18 |
| HVELGVGGVQKYGSSVA | HASQRQE | QQYYQLPLT | 0.20 0.66 0.40 0.27 0.19 0.38 | 0.35 | 0/18 |
| KISFWSYRGSLWHNNIA | EGSQRAE | QQYSRLPLN | 1.23 2.20 2.68 1.54 1.42 1.70 | 1.80 | 0/18 |
| QMYPFGLAKGEGSNNVA | HVSTRAL | QQYFQLPLV | 0.35 0.26 0.20 0.21 0.02 0.28 | 0.22 | 0/18 |
| KITFQMMSSNAHDYSIA | QTNVYSQ | QQYNRLPLD | ND ND ND ND ND ND | ND | 0/18 |
| KLNEYKHETEEKTQNIA | DQTIREP | QQYAHLPLS | 0.47 0.78 0.20 0.35 0.38 1.00 | 0.53 | 0/18 |
| HISDMLGGDHKIAHNIA | NTGVTSR | QQYSRLPLI | 0.72 0.34 0.66 0.24 0.42 0.15 | 0.42 | 1/18 (1.91) |
| KLTAAQNDYGQNYSNIA | EEVNSLQ | QQYHHLPLS | ND 2.32 ND ND ND 2.96 | 2.64 | 0/18 |
| QLDQAYRVGDLWTQSIA | HGSMRVQ | QCYNRLPLS | ND ND ND ND 1.90 ND | 1.90 | 0/18 |
| HMKDEPGLGPQTYSSVA | HASIREP | QQYYRLPLM | 0.29 0.09 -0.01 -0.05 0.11 0.16 | 0.10 | 1/18 (3.25) |
| HLSLRLSYGKDLQNAVA | GVQARMT | QQYARLPLL | 0.82 0.81 1.19 0.77 1.51 1.24 | 1.06 | 0/18 |
| MLTMFNLENQGRSNNIA | DTNNVQE | QQYSRLPFA | 0.55 0.10 -0.13 0.05 0.10 0.36 | 0.17 | 0/18 |
| RITEQYFEHMGNCNNVA | EAECKQY | QQYAHLPLL | 2.38 1.72 ND 1.04 3.28 1.82 | 2.05 | 0/18 |
| RLMNWGPDQIQHANSIA | DRDEVDS | QQYAHLPLS | ND 0.59 ND -0.51 -0.26 ND | -0.06 | 0/18 |
| FMEMDFQENSGRGNSVA | SEEVKTR | QHYGRLPLS | ND ND ND ND ND ND | ND | 0/18 |
| KLDQKIRVNGMACYNVA | DSNNRLD | QQYHRLPLI | 0.73 0.31 0.36 0.26 1.00 0.76 | 0.57 | 1/18 (2.83) |
| MMLSGSVEQQNIQNAVA | EMSMVYD | QQYVSLPLS | ND ND ND ND ND ND | ND | 0/18 |
| KLDMFIPSQWEWDASIA | GATLRPT | QDYARLPLS | 0.04 0.10 0.42 0.28 -0.28 0.40 | 0.16 | 2/18 (2.47) |
| NLGGEDAQDTRGMAAVA | DVSEVGE | QHYNRLPLS | ND 2.15 1.60 1.63 1.89 1.59 | 1.77 | 2/18 (2.76) |
| HMNHEFLGYSNYEQAIA | HESQRLY | QQYSMLPLS | 0.97 1.21 1.21 0.58 1.21 1.27 | 1.08 | 3/18 (2.28) |
| NLRGVEFESAMMGNAVA | DMSAVMA | QQYFRLPLH | ND 1.67 ND 1.19 ND 3.26 | 2.04 | 0/18 |
| KLTHPTDSWLNHVSSIA | DANISVE | QQYYQLPLT | 1.19 1.13 0.77 ND 0.76 ND | 0.96 | 0/18 |
| QVQEEALGGNGYTSNIA | GQSVAMP | QQYDRLPLD | 0.69 -0.28 -0.28 -0.14 -0.25 -0.05 | -0.05 | 1/18 (2.81) |
| HVSSMDMEDGGIKKSVA | DMKITER | QQYMRLPLS | 0.38 0.55 0.57 0.11 0.44 0.26 | 0.39 | 2/18 (1.88) |
| RLTEHYFMRADANHAVA | DASTRND | QQYHRLPLW | 0.29 0.45 0.24 0.24 0.28 0.58 | 0.34 | 4/18 (2.74) |
| TLHGNIQYGGIMIKSIA | DNVQRAN | QQYYRLPLS | 0.45 0.76 0.27 0.42 0.30 0.43 | 0.44 | 0/18 |
| RIFYNEEQDLRHNSSIA | NGSARVF | QQYYMLPLS | 1.02 1.41 1.29 1.35 1.30 1.59 | 1.32 | 2/18 (2.52) |
| NLRMKELGMSWNANNVA | DSENRIK | QQYSRLPLM | 0.64 0.82 0.29 0.87 0.58 0.67 | 0.64 | 0/18 |
| SMFEKEYEELQPENNIA | DATERMV | QQYFRLPLL | 0.77 1.63 0.76 0.61 0.98 0.88 | 0.94 | 1/18 (2.68) |
| SMETHSQDRRLDWSAVA | EAHTIYQ | QQYARLPLS | ND ND ND ND ND ND | ND | 0/18 |
| TLWDSIQGGDWAKKNVA | DEQVRMV | QQYYRLPLS | 0.48 0.55 0.71 0.88 0.63 0.98 | 0.70 | 1/18 (2.44) |
| SIFHGDELYGQNERNIA | DVQAKIV | QQYTRLPLH | 1.44 1.10 1.48 1.43 1.47 1.19 | 1.35 | 1/18 (4.22) |
| KFLSLSLHQTGNLNSVA | DAEERQT | QQYMRLPLM | 0.14 0.32 0.15 1.16 0.45 0.22 | 0.41 | 0/18 |
| RVQINSGHSDMHWKSIA | SASIRAS | QQYERLPLE | 0.79 0.59 0.59 0.58 0.52 0.73 | 0.63 | 0/18 |
| ALVAQNEQNMDKLNSIA | DQSQTQE | QQYFRLPFA | 1.24 1.83 1.17 0.77 1.15 1.73 | 1.31 | 0/18 |
| NMSDSQERDASILRNIA | DQTTRAM | QQYARLPLS | 0.07 0.02 -0.03 -0.10 -0.01 0.10 | 0.01 | 0/18 |
| NMKVGLNFEDINHQAIA | SVDEREK | QQYSRLPLT | 0.42 0.45 0.50 0.45 0.48 0.50 | 0.46 | 1/18 (3.79) |
| MLTMFANENAGKSKNIA | DTNNLNT | QQYQRLPFM | 0.82 0.40 0.64 0.55 0.62 0.70 | 0.62 | 1/18 (2.07) |

6 of these entries, quoted again:

CDR-L1,CDR-L2,CDR-L3,"replicates, log10 nM","log10 Kd (nM), mean",control signals
SMFEKEYEELQPENNIA,DATERMV,QQYFRLPLL,0.77 1.63 0.76 0.61 0.98 0.88,0.94,1/18 (2.68)
KLDMFIPSQWEWDASIA,GATLRPT,QDYARLPLS,0.04 0.10 0.42 0.28 -0.28 0.40,0.16,2/18 (2.47)
RVQINSGHSDMHWKSIA,SASIRAS,QQYERLPLE,0.79 0.59 0.59 0.58 0.52 0.73,0.63,0/18
KFLSLSLHQTGNLNSVA,DAEERQT,QQYMRLPLM,0.14 0.32 0.15 1.16 0.45 0.22,0.41,0/18
KLTHPTDSWLNHVSSIA,DANISVE,QQYYQLPLT,1.19 1.13 0.77 ND 0.76 ND,0.96,0/18
NISYEQALSTNSVNNVA,QASVRAP,QYYQRLPLC,0.24 0.14 0.66 0.02 0.09 0.62,0.30,0/18